A value given as a limit tells only on which side of the number the result lay.

In the assay the target is endogenous Furin-like PCs. In words: cell-based or functional assay.

In the case of YISRRLL (modifications not checked) [dec-YISRRLL-cmk], the inhibition of proPDGF-A processing in HEK293 cells (Western blot of media) is over 100 µM.

Source of the values: US20090130691A1, “SCREENING PROTEINASE MODULATORS USING A CHIMERIC PROTEIN AND SKI-I PROPROTEIN CONVERTASE SUBSTRATES AND INHIBITORS” (Institut de Recherches Cliniques de Montreal, priority 2005, published 2009).
